Measurements reported in patent publication US9290740B2, “Use of basic fibroblast growth factor in the de-differentiation of animal connective tissue cells” (Worcester Polytechnic Institute, priority 2008, dated 2016).

Test system: Oct4 in adult human fibroblasts
Experiment: Effect of BMP-2 on Oct4 expression with FGF2
Type: cell-based
Conditions: BMP-2 1 ng/ml, FGF2 4 ng/ml
Description: Primary adult human dermal fibroblasts from connective tissue isolated from tissue biopsy from a below knee amputation of a person were received from ATCC(CRL-2352) at passage 2. Cells were cultured in medium consisting of DMEM:Ham's F12 ([…], MediaTech) with 10% Fetalclone III (Hyclone, Logan, Utah). The DMEM (without L-Gln or phenol red) was supplemented with 4 mM fresh L-Gln (MediaTech) prior to use. Cultures were carried out in a 37° C. incubator in a humidified environment of 5% CO2, 5% O2, and 90% N2. The number of population doublings calculated as log2. Cells were seeded at 100,000 cells per T25 flask at each passage (Falcon). When used, human recombinant FGF2 (Chemicon or Protide) and BMP-2 (R&D Systems) was supplemented into medium at 4 ng/ml and 1 ng/ml respectively. Human muscle derived fibroblasts were derived from surplus muscle tissue from the calf flexor muscle used for a surgical knee repair in an adult. Tissue was rinsed in Leibowitz L-15 medium (MediaTech) containing 10 μg/ml gentamicin (Invitrogen) and 2.5 μg/ml fungizone (Hyclone) and minced using a sterile scalpel and digested with 1800 units/ml collagenase Type IV for 1 hour at 37° C. Cell lines were established by culture at 5% O2 from the beginning and working stocks cryopreserved at passage 2. […]

B1: BMP-2: BMP-2 (R&D Systems) supplemented into medium at 1 ng/ml (protein, UniProt P12643 283-396, looked up)
Bone morphogenetic protein 2: QAKHKQRKRLKSSCKRHPLYVDFSDVGWNDWIVAPPGYHAFYCHGECPFPLADHLNSTNHAIVQTLVNSVNSKIPKACCVPTELSAISMLYLDENEKVVLKNYQDMVVEGCGCR
effect on expression of Oct4 with FGF2: inhibitory effect
